Experimental data: PMC4663524, “Studies on the Bioavailability of Deoxynivalenol (DON) and DON Sulfonate (DONS) 1, 2, and 3 in Pigs Fed with Sodium Sulfite-Treated DON-Contaminated Maize” (Toxins, 2015)
“And” between values parts separate entries of the source, which are not always exact repeats. Equal entries are not always repeated. Where two headings read alike, the source gives them in different places.

Assay: Plasma toxicokinetics after a single intravenous bolus (DONiv, DONSiv)
Assay type: in vivo, pigs
Details: for AUC / half-life / clearance / Vd: iv, 50 ug/kg; for AUC: read-out: AUC, area under the curve; for clearance: read-out: Cl, plasma clearance; for Vd: read-out: Vd(area), apparent volume of distribution
Experimental: The experiment was designed as a kinetic study. The treatments included the administration of a single bolus, either po with feed serving as vehicle, or IV with standards dissolved in physiological saline (DON, DONS). Due to the instability of DONS 2 and 3 upon evaporation to dryness, the standards of the three DONS were dissolved in water acidified with 2% formic acid. The po-treatments included untreated DON-contaminated maize meal (NDON); DON-contaminated maize meal to which 5 g Na2SO3 was added dry (SDON); uncontaminated maize meal to which a mixture of DONS was added (DONSpo); DON-contaminated maize meal (MM); and kernels (MK) wet preserved with Na2SO3 for 37 (MM37, MK37) and 79 (MM79, MK79) days. […] Differences in blood profiles of DON, DONS 1, DONS 2, and DONS 3, and in related toxicokinetics, including bioavailability, would therefore enable conclusions to be drawn on the stability of DONS in vivo. In order to allow estimation of bioavailability it was necessary to obtain the plasma kinetics after IV administration of DON and DONS (DONiv, DONSiv, Table 7).
A total of 16 castrated male pigs, crossbred German Landrace × Pietrain, were used for these kinetic experiments. After an adaption phase to the balance cages, eight animals underwent surgery per trial. Animals were equipped with two permanent intravenous catheters in the external vena jugularis for serial blood sampling. After surgery the animals were allowed to recover for one day. On test day, zero blood samples had to be collected from pigs before exposure. Zero blood samples served as reference values to which the data after oral or intravenous bolus related. Serial blood samples (10 mL) were drawn prior to feeding and after 15, 30, 60 and 90 min and then after two, three, four, six, eight, 10, 12, and 24 h for pigs receiving compounds by oral administration. For pigs dosed intravenously, shorter time intervals were chosen at the beginning: five, 10, 15, 20, 30, 45 min and then following the same intervals as for oral exposure. For a clear classification in result Table 1, Table 2, Table 3, Table 4, Table 5 and Table 6, we differentiated between IV- (intravenous bolus) and O- (oral bolus) animals. Due to repeated use of individuals it was numbered continuously.
Two different injection solutions were prepared for IV administration. Standard DON (Sigma D-0156, Deisenhofen, Germany), present in solid form, was dissolved in physiological saline to prepare a 250 µg/mL stock solution. After weighing, an individual amount was drawn up into syringes with a dose of 50 µg/kg BW. The concentrations of DONS 1, 2, and 3 in DONS standard solution were 3240, 1720, and 7300 µg/mL, respectively. The production of DON sulfonates standard mixture was performed and described by Schwartz et al.. Thereafter, the standard was mixed with physiological saline to prepare a 250 µg/mL DONS stock solution. The further handling was similar to DON.
For quantitative determination of DONS 1, 2, and 3 in plasma, an HPLC-MS/MS analysis was conducted on an Agilent 1200 (Agilent Technologies, Böblingen, Germany) series HPLC system coupled to a 4000 QTrap mass spectrometer (AB Sciex, Foster City, CA, USA). Compounds were separated in gradient elution on a Phenomenex Kinetex 5u C-18 column (150 × 2.1 mm, 5 µm, 100 A) at 30 °C using water and methanol, both containing 0.1% formic acid (v/v), as mobile phases A and B. The flow rate was 300 µL/min, the injection volume 5 µL and the total run time was 17 min. The retention times of DONS 1, 2, and 3 were 2.31, 4.71, and 5.88 min, respectively. Tandem mass spectrometric detection was carried out in negative ion mode after electrospray ionization at 600 °C (ion spray voltage: −4500 V). The method was validated in-house for all analytes based on the guidelines of the FDA and European community. Calibration graphs (0.3–480 ng/mL) were prepared and good linearity was achieved (r ≥ 0.99). […]

[1] = DON in plasma after DONSiv 50 µg/kg BW, individual pigs IV6-11
[2] = male, crossbred German Landrace × Pietrain, pig, plasma, DON, IV 50 µg DON/kg BW, individual pigs IV 1-5
[3] = male, crossbred German Landrace × Pietrain, pig, plasma, DON, IV 50 µg DON/kg BW, mean, n=5

Which “AUC, area under the curve” value [1] does the source give for `CC1=C[C@H]2O[C@@H]3[C@H](O)C[C@](C)([C@@]2(CO)[C@H](O)C1=O)[C@]31CO1` [DON, deoxynivalenol] here?
Its value is 40.14 ng·h/mL and 42.16 ng·h/mL and 55.11 ng·h/mL and 40.09 ng·h/mL and 35.40 ng·h/mL.

And the “t1/2α, half-life of distribution” value [1]?
The value was 0.14 h (2×) and 0.22 h and 0.40 h and 0.17 h and 0.31 h.

And the “t1/2β, half-life of elimination” value [1]?
The value was 2.16 h and 3.14 h and 2.02 h and 4.11 h and 2.43 h and 2.57 h.

What about the “AUC, area under the curve” value (DON in plasma, IV 50 µg DON/kg BW, 0-24 h, individual pigs IV 1-5, listed as DONiv) of the same compound?
Its value is 227.8 ng·h/mL and 212.0 ng·h/mL and 206.3 ng·h/mL and 250.0 ng·h/mL.

What about the “Vd(area), apparent volume of distribution” value (DON, IV 50 µg DON/kg BW, individual pigs IV 1-5) of the same compound?
The value was 0.67 L/kg and 0.68 L/kg and 0.72 L/kg and 0.53 L/kg.

What about the C0 (male, crossbred German Landrace × Pietrain, pig, plasma, 50 µg/kg BW, IV 50 µg DON/kg BW, range over pigs, present experiment, read-out: initial concentration A + B of DON at t = 0) of the same compound?
The C0 was 121 to 708 ng/mL.

What about the AUC (male, crossbred German Landrace × Pietrain, pig, plasma, DON in plasma after DONSiv 50 µg/kg BW, individual pigs IV6-11) of the same compound?
Its AUC is 28.9 ng·h/mL.

And the AUC (male, crossbred German Landrace × Pietrain, pig, plasma, DON in plasma after DONSiv 50 µg/kg BW, mean, n=6)?
Its AUC is 40.3 ng·h/mL.

And the half-life (male, crossbred German Landrace × Pietrain, pig, plasma, DON in plasma after DONSiv 50 µg/kg BW, mean, n=6, read-out: t1/2α, half-life of distribution (converted))?
The half-life was 0.23 h.

What about the half-life (male, crossbred German Landrace × Pietrain, pig, plasma, DON in plasma after DONSiv 50 µg/kg BW, mean, n=6, read-out: t1/2β, half-life of elimination (converted)) of the same compound?
Its half-life is 2.74 h.

What about the AUC (male, crossbred German Landrace × Pietrain, pig, plasma, DON in plasma, IV 50 µg DON/kg BW, 0-24 h, individual pigs IV 1-5) of the same compound?
Its AUC is 264 ng·h/mL.

And the AUC (male, crossbred German Landrace × Pietrain, pig, plasma, DON in plasma, IV 50 µg DON/kg BW, 0-24 h, mean, n=5)?
The AUC was 232 ng·h/mL.

What about the half-life (male, crossbred German Landrace × Pietrain, pig, plasma, DON in plasma, IV 50 µg DON/kg BW, individual pigs IV 1-5, read-out: t1/2β, half-life of elimination (converted)) of the same compound?
The half-life was 1.91 h.

What about the half-life (male, crossbred German Landrace × Pietrain, pig, plasma, DON in plasma, IV 50 µg DON/kg BW, mean, n=5, read-out: t1/2β, half-life of elimination (converted)) of the same compound?
The half-life was 1.98 h.

What about the clearance [2] of the same compound?
Its clearance is 3.15 mL/min/kg.

And the Vd [2]?
Its Vd is 0.52 L/kg.

And the clearance [3]?
The clearance was 3.61 mL/min/kg.

What about the Vd [3] of the same compound?
The Vd was 0.61 L/kg.
